In patent US10155972B2, “Screening method” (IOmet Pharma Ltd., priority 2013, dated 2018):
Like-named read-outs stand apart in the source and are kept apart here. Each block holds one compound with its values, some of them ahead of it.

By UniProt entry, the sequences of proteins in these tests, tags left out. Where a name states a change or a piece, a line headed by the entry shows the natural chain unless it says otherwise.
UniProt P48775: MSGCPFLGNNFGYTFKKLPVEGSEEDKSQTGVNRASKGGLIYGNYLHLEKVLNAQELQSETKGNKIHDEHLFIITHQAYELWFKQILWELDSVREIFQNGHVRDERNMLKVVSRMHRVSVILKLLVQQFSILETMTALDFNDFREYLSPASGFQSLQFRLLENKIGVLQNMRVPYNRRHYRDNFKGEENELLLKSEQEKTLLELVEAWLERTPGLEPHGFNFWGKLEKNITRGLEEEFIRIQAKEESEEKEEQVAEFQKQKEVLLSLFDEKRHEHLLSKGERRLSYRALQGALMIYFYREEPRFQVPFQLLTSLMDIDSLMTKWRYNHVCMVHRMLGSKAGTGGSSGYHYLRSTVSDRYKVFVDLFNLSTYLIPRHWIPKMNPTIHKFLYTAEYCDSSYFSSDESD

Tests used:
[1] = target: human TDO (Homo sapiens (Human), UniProt P48775); assay: TDO coupled biochemical assay
From the text: This coupled enzyme system allowed conversion of N-formylkynurenine produced by TDO or IDO activity to kynurenine which was then quantified by fluorescence following addition of Erhlich's Reagent.

[2] = test system: A172 human glioblastoma cells; assay: A172 kynurenine cell based assay; settings: A 172, 500 μM L-Trp, 48 h, absorbance at 490 nm, read-out: A172 Kynurenine cell based assay pIC50 (converted)
[3] = test system: SK-OV-3 ovary adenocarcinoma cells; assay: SKOV3 kynurenine cell based assay; settings: Homo sapiens; SK-OV-3 cells, IFNγ 500 ng/ml, 500 μM L-Trp, 48 h, absorbance at 490 nm; read-out: SKOV3 Kynurenine cell based assay pIC50 (converted)

- IC50 [1]: 10 µM
Structure (SMILES): Fc1ccc2c(/C=C/c3cccnc3)c[nH]c2c1 [Compound 680C91]

- IC50 ([1]; coupled with kynurenine formamidase, 330 μM L-tryptophan, fluorescence 475 nm/530 nm, read-out: hTDO biochemical assay pIC50 (converted)): 2.51 µM
Structure (SMILES): Nc1nonc1/C(=N\O)Nc1cc(F)cc(Cl)c1 [Incyte 1]

Structure (SMILES): OC(CC1c2ccccc2-c2cncn21)C1CCCCC1 (stereo not shown) [NewLink 1]
- IC50 [2]: 12.6 µM
- IC50 [3]: 3.16 µM
